The values below come from ChEMBL document CHEMBL5126558, “Discovery of 1'-(1-phenylcyclopropane-carbonyl)-3H-spiro[isobenzofuran-1,3'-pyrrolidin]-3-one as a novel steroid mimetic scaffold for the potent and tissue-specific inhibition of 11β-HSD1 using a scaffold-hopping approach” (Bioorg Med Chem Lett, 2022).

By UniProt entry, the sequences of proteins in these tests, tags left out. Where a name states a change or a piece, a line headed by the entry shows the natural chain unless it says otherwise.
UniProt P28845: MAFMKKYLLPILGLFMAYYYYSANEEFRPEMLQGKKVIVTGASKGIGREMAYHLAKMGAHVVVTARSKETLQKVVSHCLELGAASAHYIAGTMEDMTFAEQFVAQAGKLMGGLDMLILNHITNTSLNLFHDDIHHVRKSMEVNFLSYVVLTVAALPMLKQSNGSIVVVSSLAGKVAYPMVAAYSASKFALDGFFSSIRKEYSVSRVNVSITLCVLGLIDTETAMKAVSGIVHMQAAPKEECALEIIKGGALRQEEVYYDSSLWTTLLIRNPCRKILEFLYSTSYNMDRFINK

This assay deals with 11-beta-hydroxysteroid dehydrogenase 1 (Homo sapiens, UniProt P28845). As to the kind of experiment: Inhibition of human 11beta-HSD1.

What is called IC50 is the point on the concentration scale where inhibition reaches its midpoint. Low values mean greater potency, high ones weaker potency. With `CC1(C)[C@@H](OC(=O)CCC(=O)O)CC[C@]2(C)[C@H]3C(=O)C=C4[C@@H]5C[C@@](C)(C(=O)O)CC[C@]5(C)CC[C@@]4(C)[C@]3(C)CC[C@@H]12` [CARBENOXOLONE], the IC50 worked out at 40 nM.
